# Measured affinities in a library of Ab-14 light chain variants

Data: MIT Lincoln Laboratory AlphaSeq set, Li et al. 2023, doi:10.1038/s41467-023-39022-2, as distributed in FLAb.

All variants were tested on one target, the spike HR2 peptide PDVDLGDISGINAS (SARS-CoV-2).

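The starting antibody came from a phage panning campaign against this peptide. This is the validation round: designs drawn from the data on random variants, tested in the same kind of assay. Their group label is 14L_GP_Gen (GP: Gaussian process model; Gen: genetic algorithm; a sequence that several methods proposed may carry one label only). Affinity was read by AlphaSeq, a pooled yeast mating assay with surface-displayed partners. Mating (16 h, 30 °C) was followed by selection of diploids and sequencing of their barcodes. The ratio of observed to expected reads was calibrated, replicate by replicate, on BCL2-family standards whose Kd was known from biolayer interferometry. The assay was run in six technical replicates.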

Parent scFv Ab-14: VH joined to VL by three GGGGS repeats. Changes lie in the light chain CDRs alone.
VH: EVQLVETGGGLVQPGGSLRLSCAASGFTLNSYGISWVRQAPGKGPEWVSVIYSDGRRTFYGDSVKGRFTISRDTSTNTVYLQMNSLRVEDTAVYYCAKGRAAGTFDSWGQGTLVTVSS
VL: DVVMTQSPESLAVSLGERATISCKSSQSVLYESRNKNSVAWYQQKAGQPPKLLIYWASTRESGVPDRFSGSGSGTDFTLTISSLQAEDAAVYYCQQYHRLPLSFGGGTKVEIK

The whole VL of each variant is written out. Values are log10 of the apparent Kd in nM; lower means stronger binding. Replicates are averaged; those with no signal do not enter the mean. As a blank, each scFv also met three strains without target: over all light chain designs, 4% of these pairings were detected, typically at 2.64 and seldom below 1.59. The control count says in how many pairings with the empty strains this scFv gave a signal, with their mean in brackets.

VL | log10 Kd (nM) by replicate | mean log10 Kd (nM) | empty controls
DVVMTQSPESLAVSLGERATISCKLQQSEPYESRNKNSVAWYQQKAGQPPKLLIYNASTRMSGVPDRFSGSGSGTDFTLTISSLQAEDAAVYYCQQYHRLPLSFGGGTKVEIK | 0.19 / 0.05 / 0.05 / -0.07 / -0.04 / 0.15 | 0.06 | 1 of 18 (4.21)
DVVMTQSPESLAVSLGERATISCKLQQSVLYESRMKNSVAWYQQKAGQPPKLLIYNASTRSSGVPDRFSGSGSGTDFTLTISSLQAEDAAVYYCQQYHRLPLSFGGGTKVEIK | 0.59 / 0.63 / 0.41 / 0.33 / 0.40 / 0.23 | 0.43 | 0 of 18
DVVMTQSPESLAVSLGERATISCKVYQSELYESRNKNSVAWYQQKAGQPPKLLIYNASTRESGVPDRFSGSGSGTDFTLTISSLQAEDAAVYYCQQYHRLPLSFGGGTKVEIK | -0.03 / -0.03 / -0.33 / -0.34 / -0.12 / 0.00 | -0.14 | 1 of 18 (3.04)
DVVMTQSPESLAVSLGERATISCKVSQSMLYESRMKNSVAWYQQKAGQPPKLLIYNASQRESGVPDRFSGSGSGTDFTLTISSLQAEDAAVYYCQQYHRLPLSFGGGTKVEIK | 0.48 / 0.14 / 0.29 / 0.41 / 0.12 / 0.11 | 0.26 | 1 of 18 (2.06)
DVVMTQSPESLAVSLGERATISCKLSQSVDYESRNKNSVAWYQQKAGQPPKLLIYEASTRESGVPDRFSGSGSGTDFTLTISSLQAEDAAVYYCQQYHRLPLSFGGGTKVEIK | 0.26 / -0.08 / -0.26 / -0.07 / 0.10 / 0.06 | 0.00 | 0 of 18
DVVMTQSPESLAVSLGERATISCKLSQSWLYESRNKNNVAWYQQKAGQPPKLLIYNASTRESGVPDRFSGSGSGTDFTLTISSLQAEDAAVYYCQQYHRLPLSFGGGTKVEIK | -0.17 / -0.42 / -0.46 / -0.70 / -0.48 / -0.47 | -0.45 | 0 of 18
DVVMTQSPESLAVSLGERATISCKLSNSVLYESRNKNNVAWYQQKAGQPPKLLIYEASTRESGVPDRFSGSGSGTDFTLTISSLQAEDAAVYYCQQYHRLPLSFGGGTKVEIK | -0.31 / -0.56 / -0.68 / -0.53 / -0.73 / -0.44 | -0.54 | 0 of 18
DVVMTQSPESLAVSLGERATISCKLSQSVLYESRNKNSVAWYQQKAGQPPKLLIYNASTREMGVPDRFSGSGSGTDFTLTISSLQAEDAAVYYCQQYHRLPLMFGGGTKVEIK | -0.03 / -0.08 / -0.35 / -0.27 / -0.20 / -0.06 | -0.16 | 1 of 18 (1.60)
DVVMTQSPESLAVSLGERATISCKLSQSVMYESRNKNSVAWYQQKAGQPPKLLIYNASTRYSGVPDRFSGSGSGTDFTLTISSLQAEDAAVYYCQQYHRLPLSFGGGTKVEIK | -0.09 / -0.15 / -0.26 / -0.24 / -0.39 / -0.14 | -0.21 | 0 of 18
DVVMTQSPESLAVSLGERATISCKLSQSVLYESRNKNSVAWYQQKAGQPPKLLIYQGSTRESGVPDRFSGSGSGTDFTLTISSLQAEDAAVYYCQQYHRLPLSFGGGTKVEIK | -0.01 / -0.19 / -0.09 / -0.26 / -0.29 / 0.01 | -0.14 | 0 of 18
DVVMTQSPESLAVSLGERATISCKLSQSELYESRMKNSVAWYQQKAGQPPKLLIYEASQRESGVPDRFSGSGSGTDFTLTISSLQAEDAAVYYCQQYHRLPLSFGGGTKVEIK | 0.34 / 0.48 / -0.04 / 0.15 / 0.28 / 0.08 | 0.21 | 1 of 18 (1.92)
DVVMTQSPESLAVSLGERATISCKVPQSELYESRNKNSVAWYQQKAGQPPKLLIYEASTRESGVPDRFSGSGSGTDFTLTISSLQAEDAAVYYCQQYHRLPLSFGGGTKVEIK | 0.04 / 0.26 / -0.17 / -0.19 / -0.13 / 0.20 | 0.00 | 0 of 18
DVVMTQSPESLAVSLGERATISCKVSQSELYESRNKNSVAWYQQKAGQPPKLLIYEASTRESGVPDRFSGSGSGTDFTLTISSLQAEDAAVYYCQQYHRLPLSFGGGTKVEIK | 0.01 / -0.26 / -0.21 / -0.19 / -0.26 / 0.00 | -0.15 | 2 of 18 (3.00)
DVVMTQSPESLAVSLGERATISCKLEQSWLYESRNKNSVAWYQQKAGQPPKLLIYNASQRESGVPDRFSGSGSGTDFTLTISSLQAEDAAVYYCQDYHRLPLSFGGGTKVEIK | 0.28 / -0.01 / -0.09 / 0.02 / -0.02 / 0.12 | 0.05 | 1 of 18 (3.57)
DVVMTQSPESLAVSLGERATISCKLSQSELYESRNKNNVAWYQQKAGQPPKLLIYHASTRESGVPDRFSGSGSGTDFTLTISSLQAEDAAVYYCQQYHRLPLSFGGGTKVEIK | 0.11 / -0.19 / -0.14 / -0.13 / -0.39 / -0.01 | -0.12 | 0 of 18
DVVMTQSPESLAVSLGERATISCKLSQSVLYEERNKNNVAWYQQKAGQPPKLLIYGASTRESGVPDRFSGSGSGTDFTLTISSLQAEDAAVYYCQQYHRLPLSFGGGTKVEIK | -0.49 / -0.62 / -0.74 / -0.79 / -0.47 / -0.57 | -0.61 | 0 of 18
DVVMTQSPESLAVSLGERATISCKLSQSMLYESRNKNSVAWYQQKAGQPPKLLIYDASQRLSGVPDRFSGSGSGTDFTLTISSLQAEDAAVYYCQQYHRLPLSFGGGTKVEIK | -0.17 / -0.15 / -0.29 / -0.37 / -0.28 / 0.03 | -0.21 | 3 of 18 (2.91)
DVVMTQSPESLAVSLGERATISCKLSQSWLYESRNKNSVAWYQQKAGQPPKLLIYNASTRESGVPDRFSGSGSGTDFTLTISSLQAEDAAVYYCQCYHRLPLSFGGGTKVEIK | 0.21 / 0.19 / 0.11 / 0.01 / 0.24 / 0.64 | 0.23 | 1 of 18 (3.18)
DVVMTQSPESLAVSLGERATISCKLSQSVPYESRNKNSVAWYQQKAGQPPKLLIYDASQRESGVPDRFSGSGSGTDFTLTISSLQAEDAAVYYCQQYHRLPLSFGGGTKVEIK | -0.07 / -0.07 / -0.15 / -0.15 / -0.15 / 0.14 | -0.08 | 2 of 18 (3.64)
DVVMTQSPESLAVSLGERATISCKLDQSQLYESRNKNSVAWYQQKAGQPPKLLIYNASTRCSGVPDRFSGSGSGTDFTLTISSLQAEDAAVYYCQQYHRLPLSFGGGTKVEIK | 0.33 / 0.16 / 0.03 / -0.01 / -0.01 / 0.21 | 0.12 | 0 of 18
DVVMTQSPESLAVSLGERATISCKLSQSWLYEQRNKNSVAWYQQKAGQPPKLLIYNASTRESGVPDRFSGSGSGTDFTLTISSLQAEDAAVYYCQQYHRLPLSFGGGTKVEIK | 0.30 / 0.10 / -0.11 / -0.04 / 0.28 / 0.03 | 0.09 | 0 of 18

Excerpt, the first 2 entries:

VL | log10 Kd (nM) by replicate | mean log10 Kd (nM) | empty controls
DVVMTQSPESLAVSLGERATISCKLQQSEPYESRNKNSVAWYQQKAGQPPKLLIYNASTRMSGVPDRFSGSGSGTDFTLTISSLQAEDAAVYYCQQYHRLPLSFGGGTKVEIK | 0.19 / 0.05 / 0.05 / -0.07 / -0.04 / 0.15 | 0.06 | 1 of 18 (4.21)
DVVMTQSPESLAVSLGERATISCKLQQSVLYESRMKNSVAWYQQKAGQPPKLLIYNASTRSSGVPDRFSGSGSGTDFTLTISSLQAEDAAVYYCQQYHRLPLSFGGGTKVEIK | 0.59 / 0.63 / 0.41 / 0.33 / 0.40 / 0.23 | 0.43 | 0 of 18

The authors averaged sequences with at least three values out of six and counted those with two or fewer as poor binders. Values of this round are not directly comparable with the first-round values of the same sequences. Of ten entries with the parent sequence, four were seen in most replicates (averages 0.34 to 2.37), three in one and three in none, so single entries are noisy.